According to PubChem BioAssay (NCI):
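Cells were grown in 96-well plates and exposed to each compound for 48 hours at five concentrations; endpoints were interpolated linearly between bracketing concentrations, or set to the highest concentration if not reached. Here, GI50 denotes the concentration required for 50% inhibition of growth. TGI marks complete inhibition of growth.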

Tests used:
Assay in all cases: NCI anticancer screen, dose series, 48 h
A549 NSCLC = system: A549 NSCLC
SK-MEL-28 melanoma = system: SK-MEL-28 melanoma
SF-295 CNS = system: SF-295 CNS
U251 CNS = system: U251 CNS
OVCAR-8 ovarian = system: OVCAR-8 ovarian
HCT-15 colon = system: HCT-15 colon
HOP-62 NSCLC = system: HOP-62 NSCLC
UACC-62 melanoma = system: UACC-62 melanoma
MALME-3M melanoma = system: MALME-3M melanoma
ACHN renal = system: ACHN renal
SK-OV-3 ovarian = system: SK-OV-3 ovarian
SW-620 colon = system: SW-620 colon
786-0 renal = system: 786-0 renal
SK-MEL-2 melanoma = system: SK-MEL-2 melanoma
NCI-H23 lung = system: NCI-H23 lung
HOP-92 NSCLC = system: HOP-92 NSCLC
HCC-2998 colon = system: HCC-2998 colon
CCRF-CEM leukemia = system: CCRF-CEM leukemia
MDA-MB-435 = system: MDA-MB-435
MCF7 breast = system: MCF7 breast
K-562 leukemia = system: K-562 leukemia
KM12 colon = system: KM12 colon
NCI-H460 lung = system: NCI-H460 lung
LOX IMVI melanoma = system: LOX IMVI melanoma
CAKI-1 renal = system: CAKI-1 renal
SF-268 CNS = system: SF-268 CNS
PC-3 prostate = system: PC-3 prostate
MDA-N = system: MDA-N
DU-145 prostate = system: DU-145 prostate
HT29 colon = system: HT29 colon
SR leukemia = system: SR leukemia
M14 melanoma = system: M14 melanoma
SNB-19 CNS = system: SNB-19 CNS
OVCAR-4 ovarian = system: OVCAR-4 ovarian
IGROV1 ovarian = system: IGROV1 ovarian
HL-60(TB) leukemia = system: HL-60(TB) leukemia
HS 578T breast = system: HS 578T breast
RXF 393 renal = system: RXF 393 renal
SN12C renal = system: SN12C renal
UACC-257 melanoma = system: UACC-257 melanoma
NCI-H522 lung = system: NCI-H522 lung
MDA-MB-231 breast = system: MDA-MB-231 breast
OVCAR-5 ovarian = system: OVCAR-5 ovarian
TK-10 renal = system: TK-10 renal
COLO 205 colon = system: COLO 205 colon
NCI-H226 lung = system: NCI-H226 lung
UO-31 renal = system: UO-31 renal
T-47D breast = system: T-47D breast
BT-549 breast = system: BT-549 breast
NCI/ADR-RES ovarian = system: NCI/ADR-RES ovarian
SK-MEL-5 melanoma = system: SK-MEL-5 melanoma
EKVX NSCLC = system: EKVX NSCLC
NCI-H322M lung = system: NCI-H322M lung
MOLT-4 leukemia = system: MOLT-4 leukemia
HCT-116 colon = system: HCT-116 colon
SNB-75 CNS = system: SNB-75 CNS
SF-539 CNS = system: SF-539 CNS
A498 renal = system: A498 renal

CC(=O)OC1(C)CC(=O)OCC23CCC(C)=CC2OC2CC(OC(=O)/C=C/C=C/C(C(C)O)OCC1O)C3(C)C21CO1 (stereo not given)
GI50 (A549 NSCLC): 232 nM | TGI (A549 NSCLC): 703 nM | GI50 (SK-MEL-28 melanoma): 88 nM | TGI (SK-MEL-28 melanoma): 339 nM | GI50 (SF-295 CNS): 191 nM | TGI (SF-295 CNS): 483 nM | GI50 (U251 CNS): 71 nM | TGI (U251 CNS): 341 nM | GI50 (OVCAR-8 ovarian): 201 nM | TGI (OVCAR-8 ovarian): 561 nM | GI50 (HCT-15 colon): 180 nM | TGI (HCT-15 colon): 558 nM | GI50 (HOP-62 NSCLC): 140 nM | TGI (HOP-62 NSCLC): 471 nM | GI50 (UACC-62 melanoma): 192 nM | TGI (UACC-62 melanoma): 426 nM | GI50 (MALME-3M melanoma): 45.6 nM | TGI (MALME-3M melanoma): 205 nM | GI50 (ACHN renal): 171 nM | TGI (ACHN renal): 582 nM | GI50 (SK-OV-3 ovarian): 103 nM | TGI (SK-OV-3 ovarian): 578 nM | GI50 (SW-620 colon): 234 nM | TGI (SW-620 colon): 874 nM | GI50 (786-0 renal): 182 nM | TGI (786-0 renal): 487 nM | GI50 (SK-MEL-2 melanoma): 52.3 nM | TGI (SK-MEL-2 melanoma): 265 nM | GI50 (NCI-H23 lung): 123 nM | TGI (NCI-H23 lung): 313 nM | GI50 (HOP-92 NSCLC): 111 nM | TGI (HOP-92 NSCLC): 374 nM | GI50 (HCC-2998 colon): 41.7 nM | TGI (HCC-2998 colon): 181 nM | GI50 (CCRF-CEM leukemia): 69.1 nM | TGI (CCRF-CEM leukemia): 434 nM | GI50 (MDA-MB-435): 160 nM | TGI (MDA-MB-435): 389 nM | GI50 (MCF7 breast): 49.8 nM | TGI (MCF7 breast): 512 nM | GI50 (K-562 leukemia): 61.3 nM | TGI (K-562 leukemia): 456 nM | GI50 (KM12 colon): 101 nM | TGI (KM12 colon): 1730 nM | GI50 (NCI-H460 lung): 30.2 nM | TGI (NCI-H460 lung): 96.8 nM | GI50 (LOX IMVI melanoma): 26.6 nM | TGI (LOX IMVI melanoma): 64.2 nM | GI50 (CAKI-1 renal): 260 nM | TGI (CAKI-1 renal): 1450 nM | GI50 (SF-268 CNS): 201 nM | TGI (SF-268 CNS): 515 nM | GI50 (PC-3 prostate): 208 nM | TGI (PC-3 prostate): 628 nM | GI50 (MDA-N): 130 nM | TGI (MDA-N): 356 nM | GI50 (DU-145 prostate): 212 nM | TGI (DU-145 prostate): 476 nM | GI50 (HT29 colon): 160 nM | TGI (HT29 colon): 451 nM | GI50 (SR leukemia): 39.1 nM | TGI (SR leukemia): 414 nM | GI50 (M14 melanoma): 101 nM | TGI (M14 melanoma): 255 nM | GI50 (SNB-19 CNS): 93 nM | TGI (SNB-19 CNS): 491 nM | GI50 (OVCAR-4 ovarian): 79.6 nM | TGI (OVCAR-4 ovarian): 279 nM | GI50 (IGROV1 ovarian): 105 nM | TGI (IGROV1 ovarian): 436 nM | GI50 (HL-60(TB) leukemia): 27.2 nM | TGI (HL-60(TB) leukemia): 92.9 nM | GI50 (HS 578T breast): 168 nM | TGI (HS 578T breast): 539 nM | GI50 (RXF 393 renal): 65.7 nM | TGI (RXF 393 renal): 235 nM | GI50 (SN12C renal): 235 nM | TGI (SN12C renal): 776 nM | GI50 (UACC-257 melanoma): 170 nM | TGI (UACC-257 melanoma): 432 nM | GI50 (NCI-H522 lung): 32 nM | TGI (NCI-H522 lung): 114 nM | GI50 (MDA-MB-231 breast): 295 nM | TGI (MDA-MB-231 breast): 897 nM | GI50 (OVCAR-5 ovarian): 232 nM | TGI (OVCAR-5 ovarian): 639 nM | GI50 (TK-10 renal): 242 nM | TGI (TK-10 renal): 714 nM | GI50 (COLO 205 colon): 156 nM | TGI (COLO 205 colon): 299 nM | GI50 (NCI-H226 lung): 67.4 nM | TGI (NCI-H226 lung): 318 nM | GI50 (UO-31 renal): 416 nM | TGI (UO-31 renal): 2320 nM | GI50 (T-47D breast): 188 nM | TGI (T-47D breast): 649 nM | GI50 (BT-549 breast): 137 nM | TGI (BT-549 breast): 577 nM | GI50 (NCI/ADR-RES ovarian): 2800 nM | GI50 (SK-MEL-5 melanoma): 41.4 nM | TGI (SK-MEL-5 melanoma): 154 nM | GI50 (EKVX NSCLC): 284 nM | TGI (EKVX NSCLC): 872 nM | GI50 (NCI-H322M lung): 299 nM | TGI (NCI-H322M lung): 1120 nM | GI50 (MOLT-4 leukemia): 55.5 nM | TGI (MOLT-4 leukemia): 944 nM | GI50 (HCT-116 colon): 53.9 nM | TGI (HCT-116 colon): 254 nM | GI50 (SNB-75 CNS): 119 nM | TGI (SNB-75 CNS): 344 nM | GI50 (SF-539 CNS): 37.9 nM | TGI (SF-539 CNS): 136 nM | GI50 (A498 renal): 248 nM | TGI (A498 renal): 570 nM
